# Ab-95 light chain CDR variants: yeast mating affinities

All variants were tested on one target, the spike HR2 peptide PDVDLGDISGINAS (SARS-CoV-2).

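Phage display of a naive human antibody library on the peptide gave the parent. AAYL52 was designed without a model: most single CDR substitutions and a random sample of double and triple ones. The scFvs were displayed on barcoded MATa yeast, the peptide on MATalpha yeast. After mating in shaken culture at 30 °C for 16 h, diploids were selected and their barcode pairs sequenced. Read counts were normalised to the haploid input and turned into Kd by a linear fit to BCL2-family pairs of known affinity, for each replicate. There are three technical replicates.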

Each scFv is VH, the linker GGGGSGGGGSGGGGS, VL, as in the parent Ab-95, and differs from it in the CDRs of the light chain only.
VH: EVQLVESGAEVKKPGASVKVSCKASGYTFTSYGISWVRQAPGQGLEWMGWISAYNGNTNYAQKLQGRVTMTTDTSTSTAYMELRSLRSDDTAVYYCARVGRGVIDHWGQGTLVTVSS
VL: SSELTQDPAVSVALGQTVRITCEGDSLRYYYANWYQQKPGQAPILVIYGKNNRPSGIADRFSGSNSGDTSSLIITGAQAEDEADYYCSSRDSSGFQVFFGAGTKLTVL

Positions count from residue 1 of the parent VL; R53C puts C in place of R. This list gathers variants with a substitution at F95 (VL, numbered from residue 1). Kd is apparent (estimated from mating counts) and averaged on the log scale over replicates with a signal. Smaller is tighter. A pair that was not seen in any replicate is written "nd"; this usually means weak binding, but a binder can also be missed. As a blank, each scFv also met three strains without target: over library AAYL52, 28% of these pairings were detected, typically at 8.2 µM and seldom below 800 nM.

- R53C+S88A+F95A: 2.1 µM (3 of 3 replicates)
- G24R+R53L+F95E: 1.8 µM (3 of 3 replicates)
- D25Y+S88D+F95D: 18 µM (1 of 3 replicates)
- F95H+V97Y: 5.3 µM (2 of 3 replicates)
- E23I+P54Y+F95T: 18 µM (3 of 3 replicates)
- D25W+S92C+F95S: 5.1 µM (3 of 3 replicates)
- D25G+P54K+F95K: 16 µM (1 of 3 replicates)
- N51R+S93N+F95I: 8.5 µM (1 of 3 replicates)
- L27T+S92Y+F95I: nd (0 of 3 replicates)
- Y30G+D91S+F95T: 5.4 nM (3 of 3 replicates)
- S89C+F95N: 370 nM (3 of 3 replicates)
- N33V+F95L+Q96H: 13 µM (2 of 3 replicates)
- K50Q+D91W+F95Q: 44 nM (3 of 3 replicates)
- R28M+F95L: 280 nM (3 of 3 replicates)
- Y29C+N33M+F95Q: 4.8 µM (2 of 3 replicates)
- R28L+N51I+F95E: 1.8 µM (2 of 3 replicates)
- Y31D+S92T+F95A: 11 nM (3 of 3 replicates)
- G24R+F95Y+Q96S: 3.9 µM (2 of 3 replicates)
- S89Q+R90N+F95W: 180 nM (3 of 3 replicates)
- P54T+F95I+V97D: nd (0 of 3 replicates)
- S55T+R90C+F95Y: 1.5 µM (3 of 3 replicates)
- S88M+S89P+F95N: 730 nM (2 of 3 replicates)
- E23H+F95N+Q96S: 280 nM (3 of 3 replicates)
- Y29N+N51I+F95R: 600 nM (3 of 3 replicates)
- S88K+F95D+F98I: 39 nM (3 of 3 replicates)
- S26W+N52R+F95N: 5.1 µM (3 of 3 replicates)
- G24N+F95H: 2.6 µM (2 of 3 replicates)
- D25P+N33V+F95Q: 66 µM (2 of 3 replicates)
- F95I+F98I: 1.4 µM (3 of 3 replicates)
- S26H+S92K+F95I: 770 nM (2 of 3 replicates)
- Y30R+A32K+F95D: 12 µM (2 of 3 replicates)
- G49K+S55I+F95S: 6.9 µM (3 of 3 replicates)
- N51V+S92H+F95M: 6.9 µM (1 of 3 replicates)
- G24L+Y31M+F95V: 5.7 µM (3 of 3 replicates)

Values reported by Engelhart et al. 2022, doi:10.1038/s41597-022-01779-4 (FLAb copy).